Results as given in US11304949B2, “Treatment of hidradenitis suppurativa using JAK inhibitors” (Incyte Corporation, priority 2018, dated 2022).

Biological target: human JAK1 (a.a. 837-1142) (Homo sapiens, UniProt P23458)
Assay: In vitro JAK kinase assay (HTRF), JAK1
Assay type: biochemical
Settings: 1 mM ATP

SMILES: CN(C)Cc1cc(F)cc(OC2CCN(CC(CC#N)n3cc(-c4ncnc5[nH]ccc45)cn3)CC2)c1 (single isomer, unassigned) [Compound 14, 4-(4-{3-[(dimethylamino)methyl]-5-fluorophenoxy}piperidin-1-yl)-3-[4-(7H-pyrrolo[2,3-d]pyrimidin-4-yl)-1H-pyrazol-1-yl]butanenitrile]
- IC50: < 10 nM
